{"source": "patent US20090312316A1", "about": "“NOVEL COMPOUNDS” (priority 2006, published 2009)", "assay": "Cleavage studies in rat blood to give the parent acid 6", "assay_type": "in vitro ADME", "settings": "rat blood (EDTA), 0.01 mg/mL, 37° C.", "description": "The sample was diluted to a volume of 1 mL by addition of 0.1 M aqueous KH2PO4. […] An Oasis MAX cartridge (1 cc/30 mg) was conditioned with 1 mL MeOH and 1 mL water successively. The supernatant was transferred to the conditioned cartridge at a flow rate of 1-2 mL/min. […] The extracts were transferred to autosampler vials and immediately analysed by LC/MS. […] LCMS was performed on a Bruker Daltonics Esquire 3000+ mass spectrometer equipped with an electrospray source coupled to the HPLC. […] Injection volume: 0.05 mL. HPLC was performed on a Waters Symmetry C8 3.5 micron column, 50 mm×2.1 mm, running a mobile phase of: mobile phase A: 0.1% formic acid in water; mobile phase B: 0.1% Formic acid in acetonitrile; flow rate: 1 mL/minute. […] Fragmentation of this molecular species results in a spectrum with intense ions at m/z 271 and 412. The daughter ion at m/z 412 can be ideally selected for quantification.", "data": [{"substance": "17-des(cyclopentane-2-carboxylic acid)-17-(cyclobutane-2-carboxylic acid)borrelidin (2-(2-hydroxyethyl)pyridine ester [Compound 8]", "values": [{"measurement": "half-life for the cleavage to parent compound 6", "result": "too rapid to calculate"}, {"measurement": "cleavage to give the parent compound 6", "setting": "up to 180 minutes", "result": "rapidly cleaved"}]}]}
